{"source": "patent US6136797A", "about": "“Phospholipid derivatives of phosphono-carboxylic acids, the production of said derivatives and the use of said derivatives as antiviral medicaments” (priority 1995, dated 2000)", "origin": "cited, not measured here", "test_system": "HSV 1 and 2, influenza, HBV, VZV, EBV as well as retroviral infections", "conditions": "cited from earlier work"}
{"compound": "O=C(O)P(=O)(O)O", "note": "[phosphonoformic acid]", "values": [{"measurement": "antiviral activity", "result": "good antiviral activity"}]}
